Results taken from patent publication US8293244B2, “Phosphotriesterase from agrobacterium radiobacter p230” (dated 2012).

By UniProt entry, the sequences of proteins in these tests, tags left out. Where a name states a change or a piece, a line headed by the entry shows the natural chain unless it says otherwise.
UniProt P45548: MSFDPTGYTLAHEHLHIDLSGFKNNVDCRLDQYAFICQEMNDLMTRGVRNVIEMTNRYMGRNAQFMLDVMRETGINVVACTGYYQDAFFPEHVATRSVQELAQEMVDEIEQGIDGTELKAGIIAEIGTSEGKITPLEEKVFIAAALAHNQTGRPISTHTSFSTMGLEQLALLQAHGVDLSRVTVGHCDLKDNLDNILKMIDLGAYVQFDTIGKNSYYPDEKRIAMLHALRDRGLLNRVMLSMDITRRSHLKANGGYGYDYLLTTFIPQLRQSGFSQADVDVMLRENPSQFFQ
UniProt P27169: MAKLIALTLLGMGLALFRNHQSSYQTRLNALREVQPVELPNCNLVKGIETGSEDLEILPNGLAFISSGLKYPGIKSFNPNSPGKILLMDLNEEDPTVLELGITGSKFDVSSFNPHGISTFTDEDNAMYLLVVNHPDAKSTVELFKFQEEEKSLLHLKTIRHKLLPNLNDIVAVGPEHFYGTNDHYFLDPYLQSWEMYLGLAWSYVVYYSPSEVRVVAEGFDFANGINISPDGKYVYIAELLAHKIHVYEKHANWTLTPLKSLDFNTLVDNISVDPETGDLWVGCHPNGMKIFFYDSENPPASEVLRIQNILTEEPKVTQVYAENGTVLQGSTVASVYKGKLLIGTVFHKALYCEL

Legend:
ePHP = ePHP (Escherichia coli, UniProt P45548); details: cited from earlier work
OpdA [1] = target: T1, OpdA (Agrobacterium tumefaciens, UniProt Q93LD7); assay: Kinetic analysis of purified OpdA with OP substrates (initial rates); details: for kcat OpdA: 50 mM Tris-HCl pH 8.0 at 25° C.; for Km: read-out: Km OpdA, 50 mM Tris-HCl pH 8.0 at 25° C.
OPD [2] = target: T2, OPD (Sphingobium fuliginis, UniProt P0A433); assay: Thin layer chromatography check of substrate hydrolysis by OPD over 24 hours; details: 0.4 mM substrate, 24 hour period
OPD [3] = target: T2, OPD; assay: Kinetic analysis of purified OPD with OP substrates (initial rates); details: for kcat OPD: 50 mM Tris-HCl pH 8.0 at 25° C.; for Km: read-out: Km OPD, 50 mM Tris-HCl pH 8.0 at 25° C.
OpdA [4] = target: T1, OpdA; assay: Thin layer chromatography check of substrate hydrolysis by OpdA over 24 hours; details: 0.4 mM substrate, 24 hour period
Paraoxonase, or PON1 = Paraoxonase, or PON1 (Homo sapiens, UniProt P27169); details: cited from earlier work
[5] = tested on: aryldialkylphosphatase (ADPase); details: ADPase versus OPD; cited from earlier work
A. radiobacter P230 = assay: Parathion hydrolytic activity of P230 cultures (p-nitrophenol formation at 405 nm); details: 880 μM parathion in assay
OpdA1 = OpdA1 (Agrobacterium tumefaciens, UniProt Q93LD7, A170S/P134S/P42S/S237G); assay: Kinetics of purified mutant OpdA1 against aliphatic OPs; details: for Km: read-out: Km OpdA1
OpdA2 = OpdA2 (Agrobacterium tumefaciens, UniProt Q93LD7, A119D); assay: Kinetics of purified mutant OpdA2 against aliphatic OPs; details: for Km: read-out: Km OpdA2
[6] = tested on: E. coli DH10β (pBluescript) cell-free extract; assay: Coumaphos hydrolytic activity of cell-free extracts, vector-only control; details: vector alone
[7] = tested on: E. coli DH10β (p65) cell-free extract; assay: Coumaphos hydrolytic activity of cell-free extracts, fluorimetric assay; details: 15 μg protein

Compound | kcat OpdA (OpdA [1]) | Km (OpdA [1]) | hydrolysis of substrate by OPD (in words) (OPD [3]) | hydrolysis of substrate by OpdA (in words) (OpdA [1]) | kcat OPD (OPD [3]) | Km (OPD [3]) | other results
p-nitrophenyl phosphate | – | – | – | – | – | – | phosphotriesterase activity in ePHP crude lysates (ePHP): No activity
COP(=S)(OC)SCN1C(=O)c2ccccc2C1=O | 0.00167 s⁻¹ | 208 µM | unable to hydrdolyse | – | – | – | hydrolysis by OPD seen by thin layer chromatography (OPD [2]): no hydrolysis; hydrolysis by OpdA seen by thin layer chromatography (OpdA [4]): consistently observed
COP(=O)(OC)Oc1ccc2c(C)cc(=O)oc2c1 | 1.36 s⁻¹ | 66 µM | able to hydrolyse | able to hydrolyse | 0.342 s⁻¹ | 46.7 µM | –
CCOP(=O)(OCC)Oc1ccc([N+](=O)[O-])cc1 | 0.558 s⁻¹ | 242 µM | able to hydrolyse | able to hydrolyse | 0.767 s⁻¹ | 225 µM | specificity constant (Paraoxonase, or PON1): around 10^6 M^−1 sec^−1; phosphotriesterase activity in ePHP crude lysates (ePHP): No activity
CCOP(=O)(OCC)Oc1ccc2c(C)c(Cl)c(=O)oc2c1 | 0.378 s⁻¹ | 15.9 µM | able to hydrolyse | able to hydrolyse | 0.658 s⁻¹ | 25.3 µM | –
CCOP(=S)(OCC)Oc1ccc([N+](=O)[O-])cc1 | 0.365 s⁻¹ | 92.6 µM | able to hydrolyse | able to hydrolyse | 0.392 s⁻¹ | 50.6 µM | turnover number, fold lower than that reported for OPD [5]: 4500 fold; Parathion hydrolytic activity (A. radiobacter P230; P230 culture grown in the absence of parathion to OD 595 nm 0.280): 3.13 ± 0.07 μmol/min/mg protein; Parathion hydrolytic activity (A. radiobacter P230; P230 culture grown in the presence of parathion to OD 595 nm 0.280): 3.36 ± 0.18 μmol/min/mg protein
COP(=S)(OC)Oc1ccc(SC)c(C)c1 | 0.0272 s⁻¹ | 149 µM | unable to hydrdolyse | – | – | – | hydrolysis by OPD seen by thin layer chromatography (OPD [2]): no hydrolysis; hydrolysis by OpdA seen by thin layer chromatography (OpdA [4]): consistently observed
bis(p-nitrophenyl) phosphate | – | – | – | – | – | – | phosphotriesterase activity in ePHP crude lysates (ePHP): No activity
CCOP(=S)(OCC)Oc1cc(C)nc(C(C)C)n1 | 1.09 s⁻¹ | 51.9 µM | able to hydrolyse | able to hydrolyse | 0.942 s⁻¹ | 54.2 µM | –
CNC(=O)CSP(=S)(OC)OC | – | – | – | – | – | – | kcat OpdA1 (OpdA1): 0.0203 s⁻¹; Km (OpdA1): 78.9 µM; kcat OpdA2 (OpdA2): 0.0233 s⁻¹; Km (OpdA2): 14.3 µM
CCOC(=O)CC(SP(=S)(OC)OC)C(=O)OCC (centres unmarked) | – | – | – | – | – | – | kcat OpdA1 (OpdA1): 0.0202 s⁻¹; Km (OpdA1): 33.3 µM; kcat OpdA2 (OpdA2): 0.0238 s⁻¹; Km (OpdA2): 40.9 µM
CCOP(=S)(OCC)Oc1ccc2c(C)c(Cl)c(=O)oc2c1 | 0.207 s⁻¹ | 8.3 µM | able to hydrolyse | able to hydrolyse | 0.235 s⁻¹ | 21.4 µM | Coumaphos hydrolytic activity [6]: 0.78 ± 0.04 nmol/min/mg protein; Coumaphos hydrolytic activity [7]: 3.30 ± 0.07 nmol/min/mg protein
CCOC(=O)CC(SP(=O)(OC)OC)C(=O)OCC (centres unmarked) | – | – | – | – | – | – | kcat OpdA1 (OpdA1): 0.033 s⁻¹; Km (OpdA1): 159 µM; kcat OpdA2 (OpdA2): 0.0307 s⁻¹; Km (OpdA2): 45.7 µM
COP(=S)(OC)Oc1ccc([N+](=O)[O-])cc1 | 1.57 s⁻¹ | 61.2 µM | able to hydrolyse | able to hydrolyse | 0.091 s⁻¹ | 32.9 µM | –
CCOP(=S)(OCC)Oc1nc(Cl)c(Cl)cc1Cl | 0.00875 s⁻¹ | 32.6 µM | able to hydrolyse | able to hydrolyse | 0.015 s⁻¹ | 47.2 µM | –
CC(=O)Oc1ccc([N+](=O)[O-])cc1 | – | – | – | – | – | – | phosphotriesterase activity in ePHP crude lysates (ePHP): No activity
